This note sets out measurements from patent EP2486923B1, “Histone deacetylase (HDAC) inhibiting compounds and method of making same” (Dr. Felix Jäger und Dr. Stefan Drinkuth Laborgemeinschaft …, priority 2011, dated 2012).

The experiment deals with T1, HDAH (Alcaligenes sp., UniProt Q70I53).
T1 sequence (Q70I53 1-369): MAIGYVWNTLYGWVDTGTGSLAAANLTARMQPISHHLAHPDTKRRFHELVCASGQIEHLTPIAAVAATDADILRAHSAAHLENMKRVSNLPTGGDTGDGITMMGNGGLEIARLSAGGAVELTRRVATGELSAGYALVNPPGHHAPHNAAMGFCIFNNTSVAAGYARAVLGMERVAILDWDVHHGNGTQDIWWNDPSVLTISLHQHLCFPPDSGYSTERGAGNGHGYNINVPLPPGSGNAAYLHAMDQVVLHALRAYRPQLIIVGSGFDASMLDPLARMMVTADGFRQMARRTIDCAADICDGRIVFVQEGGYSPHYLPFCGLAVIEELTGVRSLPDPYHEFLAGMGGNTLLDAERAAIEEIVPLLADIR
Description: Two-step fluorescence assay for determination of IC50. It counts as biochemical. Here is the method:
In order to evaluate the inhibitory characteristics of example compounds of the invention, IC50 values were determined for such compounds. The IC50 value is the half maximal (50%) inhibitory concentration (IC) of a substance (50% IC, or IC50), i.e. the concentration of a given compound that is necessary to inhibit a given biological process, e.g. an enzyme activity, by half. A two-step assay was used for this purpose.
To obtain the IC50 value for an individual compound/HDAC pair, a two-step assay can be performed based on a fluorescence signal. In principle, an ε-acetylated lysine substrate is deacetylated by histone-deacetylases in the first step. Trypsin releases detectable 7-amino-4-methylcoumarin (ex = excitation wavelength: 390 nm, em = emission wavelength: 460 nm) by cleaving the substrate at the deacetylated lysine in a subsequent reaction^[9]. The enzyme activity is inhibited by a suitable HDACi.
The obtained data are interpreted using a four parameter fit. Based on this fit, the IC50 value can be estimated. Analysis ot the data and calculation of the IC50 values was accomplished using a four-parameter logistic model protocol as previously described by Vølund^[16]. For nonlinear fits the Levenberg-Marquardt algorithm was applied^[17],[18]. […]. Table 1: IC50 values in µM for synthesized compounds of the invention with a perfluorinated linker. […]

For orientation: IC50 means the concentration that gives 50% inhibition. A lower IC50 goes with higher potency.

With `O=C(CCCCCCC(=O)Nc1ccccc1)NO` [SAHA, Vorinostat, reference compound], the IC50 was 810 nM.
